From patent US6566088B1, “Prolyl-4-hydroxylases” (Board of Regents, The University of Texas System, priority 2001, dated 2003)

Sequences of proteins named here, by UniProt entry; tags and fusion partners are left off. A change or cut given only in a name is not applied to a line headed by its entry.
UniProt Q9GZT9: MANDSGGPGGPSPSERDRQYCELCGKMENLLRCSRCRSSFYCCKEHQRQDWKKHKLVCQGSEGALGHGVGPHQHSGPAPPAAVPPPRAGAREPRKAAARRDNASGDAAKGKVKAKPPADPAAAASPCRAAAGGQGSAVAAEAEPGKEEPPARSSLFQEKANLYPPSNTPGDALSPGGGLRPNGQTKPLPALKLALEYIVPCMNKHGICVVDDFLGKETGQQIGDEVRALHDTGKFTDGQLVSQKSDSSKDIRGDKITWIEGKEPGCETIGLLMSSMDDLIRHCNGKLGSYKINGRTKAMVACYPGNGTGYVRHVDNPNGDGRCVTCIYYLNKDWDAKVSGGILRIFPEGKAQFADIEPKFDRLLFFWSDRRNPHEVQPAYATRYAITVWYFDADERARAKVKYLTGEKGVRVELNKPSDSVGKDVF

Target: HPH 2 (Homo sapiens, UniProt Q9GZT9, DEL76-177)
Test: Activity of purified recombinant HPH 2 on HIF-1a peptide substrate
Format: biochemical
Details: additive added (CoCl2 in excess)

CoCl2
effect on activity of the HPH 2 enzyme: inhibited
